# Permeability data for macrocyclic peptides

Data: CycPeptMPDB; original report Kelly et al. 2021, doi:10.1021/jacs.0c06115.

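Lipid, pH, incubation time, direction and concentration are not recorded in the data file. The list need not hold all peptides of the study. Peptides that the database sets to -10, its floor, are left out.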

PAMPA is the parallel artificial membrane permeability assay, which has no cells and reads passive diffusion. P is given in units of 10^-6 cm/s (from log10 values with two decimals); larger means faster passage.

| structure (SMILES) | PAMPA (10^-6 cm/s) |
|---|---|
| CC(=O)N1CCC[C@H]1C(=O)N[C@@H]1C(=O)N(C)[C@H](CC(C)C)C(=O)N(C)[C@H](CC(C)C)C(=O)N(C)[C@@H](CC(C)C)C(=O)N(C)[C@@H](CC(C)C)C(=O)N[C@@H](C)C(=O)N[C@@H](CC(C)C)C(=O)N2CCC[C@@H]2C(=O)O[C@@H]1C | 7.1 |
| CCC[C@H]1NC(=O)[C@@H](NC(=O)[C@@H](CC(C)C)N(C)C(=O)[C@@H]2CCCN2C(C)=O)[C@@H](C)OC(=O)[C@@H]2CCCN2C(=O)[C@H](CC(C)C)NC(=O)[C@@H](C)N(C)C(=O)[C@@H](Cc2cccc3ccccc23)NC(=O)[C@H](CC(C)C)NC1=O | 7.2 |
| CC[C@H]1NC(=O)[C@H](Cc2ccccc2)NC(=O)[C@@H](CC2CCCCC2)NC(=O)[C@@H](NC(=O)[C@@H](CC(C)C)N(C)C(=O)[C@@H]2CCCN2C(C)=O)[C@@H](C)OC(=O)[C@@H]2CCCN2C(=O)[C@H](CC(C)C)NC(=O)[C@@H](C)N(C)C1=O | 3.9 |
| CC(=O)N1CCC[C@H]1C(=O)N[C@@H]1C(=O)N(C)[C@H](CC(C)C)C(=O)N(C)[C@@H](CC(C)C)C(=O)N[C@H](CC(C)C)C(=O)N(C)[C@H](CC(C)C)C(=O)N[C@H](C)C(=O)N[C@@H](CC(C)C)C(=O)N2CCC[C@@H]2C(=O)O[C@@H]1C | 8.5 |
| CCC[C@H]1NC(=O)[C@@H](NC(=O)[C@@H](CC(C)C)N(C)C(=O)[C@@H]2CCCN2C(C)=O)[C@@H](C)OC(=O)[C@@H]2CCCN2C(=O)[C@H](CC(C)C)NC(=O)[C@@H](C)N(C)C(=O)[C@@H](CC2CCCCC2)NC(=O)[C@H](CC)NC1=O | 3.4 |
| CC(=O)N1CCC[C@H]1C(=O)N(C)[C@H](CC(C)C)C(=O)N[C@@H]1C(=O)N[C@H](Cc2ccccc2)C(=O)N[C@@H](CC(C)C)C(=O)N[C@H](CC2CCCCC2)C(=O)N(C)[C@H](C)C(=O)N[C@@H](CC(C)C)C(=O)N2CCC[C@H]2C(=O)O[C@@H]1C | 0.93 |
| CC[C@H]1NC(=O)[C@H](CC(C)C)NC(=O)[C@@H](CC2CCCCC2)NC(=O)[C@@H](NC(=O)[C@@H](CC(C)C)N(C)C(=O)[C@@H]2CCCN2C(C)=O)[C@@H](C)OC(=O)[C@@H]2CCCN2C(=O)[C@H](CC(C)C)NC(=O)[C@@H](C)N(C)C1=O | 5.1 |
| CC(=O)N1CCC[C@H]1C(=O)N[C@@H]1C(=O)N[C@H](CC(C)C)C(=O)N[C@H](CC(C)C)C(=O)N(C)[C@H](CC(C)C)C(=O)N(C)[C@H](CC(C)C)C(=O)N[C@@H](C)C(=O)N[C@@H](CC(C)C)C(=O)N2CCC[C@@H]2C(=O)O[C@@H]1C | 1.2 |
| CC(=O)N1CCC[C@H]1C(=O)N[C@@H]1C(=O)N[C@H](CC(C)C)C(=O)N(C)[C@H](CC(C)C)C(=O)N[C@H](CC(C)C)C(=O)N[C@@H](CC(C)C)C(=O)N[C@H](C)C(=O)N[C@@H](CC(C)C)C(=O)N2CCC[C@@H]2C(=O)O[C@@H]1C | 0.74 |